Data from patent US20260092124A1.

Amino acid sequences for entries named in this document (tags omitted). Residues count along the entry.
UniProt P25942, 21-277: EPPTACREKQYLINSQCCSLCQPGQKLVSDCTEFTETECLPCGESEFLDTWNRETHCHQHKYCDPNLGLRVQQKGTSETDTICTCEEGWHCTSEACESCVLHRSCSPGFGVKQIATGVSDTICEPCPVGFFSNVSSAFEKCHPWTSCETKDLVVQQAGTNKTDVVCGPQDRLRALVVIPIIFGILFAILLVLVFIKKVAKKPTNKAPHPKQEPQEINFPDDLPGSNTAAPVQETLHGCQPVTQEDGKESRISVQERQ

Key:
human CD40 (human) [1] = target: human CD40 (human) (UniProt P25942); assay: cell binding (GpL luciferase, HT1080-CD40); mean, n=5
human CD40 (human) [2] = target: human CD40 (human) (UniProt P25942); assay: cell binding (GpL luciferase, HT1080-CD40); single representative experiment

## ChiLob7.4 IgG1 variant
Human CD40 (human) [1]
  Kd: 0.272 µg/mL
Human CD40 (human) [2]
  Kd: 0.27 µg/mL
